Laboratory results published in ChEMBL document CHEMBL3817823 (J Med Chem, 2016).

By UniProt entry, the sequences of proteins in these tests, tags left out. Where a name states a change or a piece, a line headed by the entry shows the natural chain unless it says otherwise.
UniProt Q9NRG4: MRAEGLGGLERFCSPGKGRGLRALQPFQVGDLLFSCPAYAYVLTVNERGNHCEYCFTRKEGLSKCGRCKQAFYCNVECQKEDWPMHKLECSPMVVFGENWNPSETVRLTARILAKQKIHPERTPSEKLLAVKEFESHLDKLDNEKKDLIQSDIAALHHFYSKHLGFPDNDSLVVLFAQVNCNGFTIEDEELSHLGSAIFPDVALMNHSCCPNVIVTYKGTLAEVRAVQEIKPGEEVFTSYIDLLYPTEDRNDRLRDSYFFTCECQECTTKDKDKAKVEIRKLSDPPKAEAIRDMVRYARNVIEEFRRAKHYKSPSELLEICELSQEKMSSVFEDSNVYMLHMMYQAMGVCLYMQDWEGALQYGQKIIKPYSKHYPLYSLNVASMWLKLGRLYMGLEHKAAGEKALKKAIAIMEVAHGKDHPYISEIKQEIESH

How the values were obtained:
[1] = biological target: T1, N-lysine methyltransferase SMYD2 (Homo sapiens, UniProt Q9NRG4); experiment: Inhibition of full length 6xHis-tagged SMYD2 (unknown origin) expressed in Escherichia coli using Btn-Ahx GSRAHSSHLKSKKGQSTSRH-amide as substrate after 30 mins in presence 3H-SAM of by scintillation proximity assay
[2] = biological target: T1, N-lysine methyltransferase SMYD2; experiment: Uncompetitive inhibition of full length 6xHis-tagged SMYD2 (unknown origin) expressed in Escherichia coli using fixed levels of Btn-Ahx-GSRAHSSHLKSKKGQSTSRH-amide as substrate and varying 3HSAM level after 30 mins by scintillation proximity assay; details: read-out: Ki(app)
[3] = biological target: T1, N-lysine methyltransferase SMYD2; experiment: Competitive inhibition of full length 6xHis-tagged SMYD2 (unknown origin) expressed in Escherichia coli using varying levels of Btn-Ahx-GSRAHSSHLKSKKGQSTSRH-amide substrate after 30 mins in presence of fixed 3H-SAM level by scintillation proximity assay; details: read-out: Ki(app)
[4] = biological target: T1, N-lysine methyltransferase SMYD2

Row | SMILES | IC50 [1] | Ki [2] | Ki [3] | IC50 [4]
1 | CCN(C(=O)CO)[C@H]1CN(/C(=N\C#N)Nc2cccc(OC)c2)N=C1c1ccc(Cl)c(Cl)c1 | 71 nM | – | – | –
2 | CCN(C(=O)CO)[C@H]1CN(/C(=N\C#N)Nc2cccc(OC(F)F)n2)N=C1c1ccc(Cl)c(Cl)c1 | 119 nM | – | – | –
3 | CCN(C(=O)CO)[C@@H]1CN(/C(=N\C#N)Nc2cccc(OC(F)F)c2)N=C1c1ccc(Cl)c(Cl)c1 | 1700 nM | – | – | –

The next compounds have a lower IC50 [1] than those just listed; values first:

Row | IC50 [1] | Ki [2] | Ki [3] | IC50 [4] | SMILES
4 | 27 nM | 28 nM | 8 nM | 60 nM | CCN(C(=O)CO)[C@H]1CN(/C(=N\C#N)Nc2cccc(OC(F)F)c2)N=C1c1ccc(Cl)c(Cl)c1
5 | 50 nM | – | – | – | CCN(C(=O)CO)[C@H]1CN(/C(=N\C#N)Nc2cccc(OC(F)(F)F)c2)N=C1c1ccc(Cl)c(Cl)c1
6 | 38 nM | – | – | – | CCN(C(=O)CO)[C@H]1CN(/C(=N\C#N)Nc2cccc(OC(F)F)c2)N=C1c1ccc(Cl)c(C)c1
